Tests used:
[1] = target: Recombinant human mammalian tolloid-like-1 (mTLL-1) with a C-terminal 6x-His tag (human) (UniProt O43897); experiment: SPR; BIAcore 3000, 25 °C; BMP-1, mTLL-1 or MASP-2 immobilised by amine coupling on CM5; C1q or MBL injected (60 µl, 20 µl/min) at several concentrations in 50 mM triethanolamine-HCl, 145 mM NaCl, 2 mM CaCl2, 0.005% surfactant P20, pH 7.4; global fit to a 1:1 Langmuir model; apparent KD from kd/ka
[2] = target: Recombinant human bone morphogenetic protein-1 (BMP-1) with a C-terminal FLAG tag (human) (UniProt P13497); experiment: as above

The chains behind the UniProt entries cited, without tags or fusion partners. A line that says so, or that is headed by a name, gives the form on record, which may keep a tag or linker. Residues count along the entry.
UniProt O43897, 148-1013: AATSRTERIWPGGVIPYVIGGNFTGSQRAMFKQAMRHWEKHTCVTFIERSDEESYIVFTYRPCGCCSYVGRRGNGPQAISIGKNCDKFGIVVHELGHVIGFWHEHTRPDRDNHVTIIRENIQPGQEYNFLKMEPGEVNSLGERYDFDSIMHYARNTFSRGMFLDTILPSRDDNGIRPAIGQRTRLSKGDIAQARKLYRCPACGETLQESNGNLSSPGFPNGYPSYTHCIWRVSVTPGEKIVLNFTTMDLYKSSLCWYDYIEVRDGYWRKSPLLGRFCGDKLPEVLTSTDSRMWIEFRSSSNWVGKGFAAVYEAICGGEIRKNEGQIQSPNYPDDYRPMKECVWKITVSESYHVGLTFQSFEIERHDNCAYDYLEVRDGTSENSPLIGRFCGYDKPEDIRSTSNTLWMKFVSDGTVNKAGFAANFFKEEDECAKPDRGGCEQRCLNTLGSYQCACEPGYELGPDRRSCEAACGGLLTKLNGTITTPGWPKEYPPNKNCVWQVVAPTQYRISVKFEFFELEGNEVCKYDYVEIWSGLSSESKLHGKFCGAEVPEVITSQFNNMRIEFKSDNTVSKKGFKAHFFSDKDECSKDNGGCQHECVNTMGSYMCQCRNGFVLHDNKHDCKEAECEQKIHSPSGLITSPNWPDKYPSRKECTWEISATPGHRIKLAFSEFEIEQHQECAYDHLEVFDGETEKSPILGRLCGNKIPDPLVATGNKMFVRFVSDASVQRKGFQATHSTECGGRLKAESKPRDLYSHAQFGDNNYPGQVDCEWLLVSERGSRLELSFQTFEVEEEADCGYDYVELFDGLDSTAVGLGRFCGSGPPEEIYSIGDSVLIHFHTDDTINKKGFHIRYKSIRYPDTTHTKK
UniProt P13497, other isoform, or with tags, fused parts or gaps: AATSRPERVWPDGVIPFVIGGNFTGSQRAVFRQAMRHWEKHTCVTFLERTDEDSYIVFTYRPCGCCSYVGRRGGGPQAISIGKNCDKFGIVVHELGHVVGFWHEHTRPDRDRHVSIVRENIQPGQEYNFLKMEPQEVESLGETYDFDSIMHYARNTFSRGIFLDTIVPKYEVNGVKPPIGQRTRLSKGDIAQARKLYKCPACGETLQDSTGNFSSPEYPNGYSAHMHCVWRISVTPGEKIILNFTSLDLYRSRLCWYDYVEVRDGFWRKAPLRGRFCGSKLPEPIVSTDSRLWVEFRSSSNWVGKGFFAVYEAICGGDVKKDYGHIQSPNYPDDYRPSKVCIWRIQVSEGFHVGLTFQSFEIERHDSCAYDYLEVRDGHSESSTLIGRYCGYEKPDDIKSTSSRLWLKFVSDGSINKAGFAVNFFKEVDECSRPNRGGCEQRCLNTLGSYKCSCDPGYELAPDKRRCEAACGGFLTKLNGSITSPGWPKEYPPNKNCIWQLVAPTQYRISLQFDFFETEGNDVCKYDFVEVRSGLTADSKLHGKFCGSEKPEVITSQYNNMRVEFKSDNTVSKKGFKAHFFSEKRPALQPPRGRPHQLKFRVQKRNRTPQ

Kd [1]: 0.89 nM | koff [1]: 0.0003 s⁻¹ | kon [1]: 360000 M⁻¹ s⁻¹ | Kd [2]: 0.48 nM | koff [2]: 0.00021 s⁻¹ | kon [2]: 440000 M⁻¹ s⁻¹
Substance: C1q (from UniProt P02745 23-245; P02746 28-253; P02747 29-245) (complex)
